The text below walks through data of PubChem BioAssay (NCI).

Assay [1] can be described thus: NCI Yeast Anticancer Drug Screen. Data for the rad50 strain (AID 155).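 Also: 0% = growth of vehicle-only cultures of the same strain.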 The following applies: S. cerevisiae rad50 strain growth inhibition, stronger effect = higher value.
Assay [2] can be described thus: NCI Yeast Anticancer Drug Screen. Data for the mec2-1 strain (AID 157). Conditions: S. cerevisiae mec2-1 strain, stronger effect = higher value.
Assay [3] is described as follows: NCI Yeast Anticancer Drug Screen. Data for the sgs1 mgt1 strain (AID 161).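 Also: 0% = growth of cultures given vehicle only.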 The following applies: S. cerevisiae sgs1 mgt1 strain, stronger effect = higher value.
A short description of assay [4]: NCI Yeast Anticancer Drug Screen. Data for the cln2 rad14 strain (AID 165).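 Also: 0% = growth equal to vehicle treated cultures.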 The following applies: S. cerevisiae cln2 rad14 strain, stronger effect = higher value.
Assay [5] can be described thus: NCI Yeast Anticancer Drug Screen. Data for the bub3 strain (AID 167). The following applies: S. cerevisiae bub3 mutant strain, stronger effect = higher value.
A short description of assay [6]: NCI Yeast Anticancer Drug Screen. Data for the mlh1 rad18 strain (AID 175). Conditions: S. cerevisiae mlh1 rad18 strain growth inhibition, stronger effect = higher value.
[7] abbreviates: at 5.0 µM (retest, dose inferred, filed as 0.5).
Setting [8] is: at 50.0 µM (retest, dose inferred, filed as 5.0).

Only a part is listed here, and it is no random draw. More than one record can exist for a structure, and the calls need not agree. Active and inactive are the calls of the source. Rule as the data show it: active = growth inhibition above about 70%; inactive = the rest.

Regarding `CCOC(=S)Sc1c([N+](=O)[O-])cc([N+](=O)[O-])cc1[N+](=O)[O-]`, the growth inhibition was active: 90% in assay [1] (setting [7]); active: 98% in assay [1] (setting [8]); active: 93.1% in assay [1] (at 50.0 µM); active: 99% in assay [2] (setting [7]); active: 99% in assay [2] (setting [8]); active: 94.3% in assay [2] (at 50.0 µM). Further, the growth inhibition in assay [3] (setting [7]) was active: 92%; in assay [3] (setting [8]), active: 98%; in assay [3] (at 50.0 µM), active: 92.6%; in assay [4] (setting [7]) it was active: 87%; in assay [4] (setting [8]), active: 99%; in assay [4] (at 50.0 µM), active: 90.2%. Further, the growth inhibition in assay [5] (setting [7]) is active: 99%; in assay [5] (setting [8]) it was active: 98%; in assay [5] (at 50.0 µM), active: 91.5%; in assay [6] (setting [7]), active: 99%; in assay [6] (setting [8]), active: 98%; in assay [6] (at 50.0 µM), active: 92%.

As for `CCN(CC)CCOC(=O)C(O)(c1ccc(C(C)C)cc1)c1ccc(C(C)C)cc1`, the growth inhibition in assay [1] (setting [7]) was inactive: -2%; in assay [1] (setting [8]), inactive: 9%; in assay [1] (at 50.0 µM) it was active: 93.5%; in assay [2] (setting [7]), inactive: 14%; in assay [2] (setting [8]), inactive: 29%; in assay [2] (at 50.0 µM) it was active: 96.2%. In addition, the growth inhibition in assay [3] (setting [7]) is inactive: -5%; in assay [3] (setting [8]), inactive: 46%; in assay [3] (at 50.0 µM), active: 98.6%; in assay [4] (setting [7]), inactive: -6%; in assay [4] (setting [8]), inactive: -6%; in assay [4] (at 50.0 µM) it was inactive: 24%. Besides, the growth inhibition in assay [5] (setting [7]) was inactive: -5%; in assay [5] (setting [8]), inactive: 29%; in assay [5] (at 50.0 µM), active: 97.8%; in assay [6] (setting [7]), inactive: 16%; in assay [6] (setting [8]) it was active: 78%; in assay [6] (at 50.0 µM), active: 98.9%.

Regarding `COc1ccc2nccc(C=O)c2c1.O=[N+]([O-])c1cc([N+](=O)[O-])c(O)c([N+](=O)[O-])c1`, the growth inhibition in assay [1] (setting [7]) is inactive: -1%; in assay [1] (setting [8]) it was inactive: 33%; in assay [1] (at 50.0 µM), inactive: 53.5%; in assay [2] (setting [7]), inactive: -3%; in assay [2] (setting [8]), inactive: 30%; in assay [2] (at 50.0 µM), inactive: 29.2%. For the same molecule, the growth inhibition in assay [3] (setting [7]) was inactive: 3%; in assay [3] (setting [8]) it was inactive: 26%; in assay [3] (at 50.0 µM), inactive: 69.4%; in assay [4] (setting [7]), inactive: -2%; in assay [4] (setting [8]), inactive: 19%; in assay [4] (at 50.0 µM), inactive: 24.2%. The growth inhibition was inactive: -3% in assay [5] (setting [7]); inactive: 14% in assay [5] (setting [8]); inactive: 13.3% in assay [5] (at 50.0 µM); inactive: 22% in assay [6] (setting [7]); inactive: 62% in assay [6] (setting [8]); inactive: 61.9% in assay [6] (at 50.0 µM).

`O=[N+]([O-])OCC1CO1` (centres undefined): the growth inhibition in assay [1] (setting [7]) was inactive: 2%; in assay [1] (setting [8]) it was inactive: 2%; in assay [1] (at 50.0 µM), inactive: -10.8%; in assay [2] (setting [7]), inactive: 4%; in assay [2] (setting [8]) it was inactive: 2%; in assay [2] (at 50.0 µM), inactive: -1.1%. In addition, the growth inhibition was inactive: 3% in assay [3] (setting [7]); inactive: 3% in assay [3] (setting [8]); inactive: -12.1% in assay [3] (at 50.0 µM); inactive: 2% in assay [4] (setting [7]); inactive: 0% in assay [4] (setting [8]); inactive: 31.1% in assay [4] (at 50.0 µM). Moreover, the growth inhibition in assay [5] (setting [7]) was inactive: -1%; in assay [5] (setting [8]), inactive: -3%; in assay [5] (at 50.0 µM) it was inactive: 13%; in assay [6] (setting [7]), inactive: -2%; in assay [6] (setting [8]), inactive: -4%; in assay [6] (at 50.0 µM), inactive: -0.55%.

Consider `Cc1ccnc(C)c1.O=[N+]([O-])c1cc([N+](=O)[O-])c(O)c([N+](=O)[O-])c1`, for which the growth inhibition was inactive: 2.5% in assay [1] (at 50.0 µM); inactive: 7.45% in assay [2] (at 50.0 µM); inactive: -10.8% in assay [3] (at 50.0 µM); inactive: -5% in assay [4] (at 50.0 µM); inactive: -1.35% in assay [5] (at 50.0 µM).

As for `C/C=C/c1cccc2ccccc12.O=[N+]([O-])c1cc([N+](=O)[O-])cc([N+](=O)[O-])c1`, the growth inhibition was inactive: 17% in assay [1] (setting [7]); active: 81% in assay [1] (setting [8]); active: 99% in assay [1] (at 50.0 µM); inactive: 12% in assay [2] (setting [7]); inactive: 68% in assay [2] (setting [8]); active: 99.6% in assay [2] (at 50.0 µM). Moreover, the growth inhibition was inactive: 26% in assay [3] (setting [7]); inactive: 55% in assay [3] (setting [8]); active: 99.5% in assay [3] (at 50.0 µM); inactive: 16% in assay [4] (setting [7]); active: 99% in assay [4] (setting [8]); active: 99.3% in assay [4] (at 50.0 µM). Besides, the growth inhibition in assay [5] (setting [7]) is inactive: 12%; in assay [5] (setting [8]), active: 97%; in assay [5] (at 50.0 µM), active: 96.7%; in assay [6] (setting [7]) it was inactive: 26%; in assay [6] (setting [8]), active: 99%; in assay [6] (at 50.0 µM) it was active: 99.4%.

As for `CC(C)N(CCCl)C(C)C`, the growth inhibition in assay [1] (setting [7]) is inactive: 2%; in assay [1] (setting [8]), inactive: 12%; in assay [2] (setting [7]), inactive: -4%; in assay [2] (setting [8]), inactive: -1%; in assay [3] (setting [7]), inactive: 2%; in assay [3] (setting [8]) it was inactive: 15%. For the same molecule, the growth inhibition is inactive: -1% in assay [4] (setting [7]); inactive: 1% in assay [4] (setting [8]); inactive: -1% in assay [5] (setting [7]); inactive: 3% in assay [5] (setting [8]); inactive: 13% in assay [6] (setting [7]); inactive: 31% in assay [6] (setting [8]).

Regarding `Cc1cc2ccccc2cc1C.O=[N+]([O-])c1cc([N+](=O)[O-])c(O)c([N+](=O)[O-])c1`, the growth inhibition in assay [1] (at 50.0 µM) was inactive: 24.1%; in assay [2] (at 50.0 µM), inactive: 3.5%; in assay [3] (at 50.0 µM), inactive: 24.6%; in assay [4] (at 50.0 µM), inactive: 5.5%; in assay [5] (at 50.0 µM), inactive: 3.2%; in assay [6] (at 50.0 µM), inactive: 13.7%.

Turning to `CCOC(=O)CN(CCCl)CCCl.O=[N+]([O-])c1cc([N+](=O)[O-])c(S(=O)(=O)O)c([N+](=O)[O-])c1`, the growth inhibition was inactive: -1% in assay [1] (setting [7]); inactive: 22% in assay [1] (setting [8]); inactive: 38.6% in assay [1] (at 50.0 µM); inactive: 6% in assay [2] (setting [7]); inactive: 31% in assay [2] (setting [8]); inactive: 44.5% in assay [2] (at 50.0 µM). Moreover, the growth inhibition in assay [3] (setting [7]) is inactive: 15%; in assay [3] (setting [8]), inactive: 58%; in assay [3] (at 50.0 µM) it was active: 79.2%; in assay [4] (setting [7]) it was inactive: -1%; in assay [4] (setting [8]), inactive: 19%; in assay [4] (at 50.0 µM), active: 71.2%. Moreover, the growth inhibition in assay [5] (setting [7]) was inactive: 5%; in assay [5] (setting [8]), inactive: 44%; in assay [5] (at 50.0 µM), inactive: 13.9%; in assay [6] (setting [7]) it was inactive: 13%; in assay [6] (setting [8]), inactive: 41%; in assay [6] (at 50.0 µM), inactive: 40.9%.

Take `O=[N+]([O-])c1cc([N+](=O)[O-])c2nonc2c1`: the growth inhibition in assay [1] (setting [7]) is inactive: 11%; in assay [1] (setting [8]), active: 99%; in assay [1] (at 50.0 µM), inactive: 48.5%; in assay [2] (setting [7]), inactive: 0%; in assay [2] (setting [8]) it was active: 99%; in assay [2] (at 50.0 µM), inactive: 48%. In addition, the growth inhibition is inactive: 9% in assay [3] (setting [7]); active: 97% in assay [3] (setting [8]); inactive: 61.4% in assay [3] (at 50.0 µM); inactive: -8% in assay [4] (setting [7]); active: 97% in assay [4] (setting [8]); inactive: 9.7% in assay [4] (at 50.0 µM). In addition, the growth inhibition was inactive: -14% in assay [5] (setting [7]); active: 99% in assay [5] (setting [8]); inactive: 54% in assay [5] (at 50.0 µM); inactive: 8% in assay [6] (setting [7]); active: 99% in assay [6] (setting [8]); active: 80.8% in assay [6] (at 50.0 µM).
